Measured values: ChEMBL document CHEMBL1142820, “Identification of potent and selective MMP-13 inhibitors” (Bioorg Med Chem Lett, 2005)

Amino acid sequences for entries named in this document (tags omitted). A change or cut given only in a name is not applied to a line headed by its entry.
UniProt P08253: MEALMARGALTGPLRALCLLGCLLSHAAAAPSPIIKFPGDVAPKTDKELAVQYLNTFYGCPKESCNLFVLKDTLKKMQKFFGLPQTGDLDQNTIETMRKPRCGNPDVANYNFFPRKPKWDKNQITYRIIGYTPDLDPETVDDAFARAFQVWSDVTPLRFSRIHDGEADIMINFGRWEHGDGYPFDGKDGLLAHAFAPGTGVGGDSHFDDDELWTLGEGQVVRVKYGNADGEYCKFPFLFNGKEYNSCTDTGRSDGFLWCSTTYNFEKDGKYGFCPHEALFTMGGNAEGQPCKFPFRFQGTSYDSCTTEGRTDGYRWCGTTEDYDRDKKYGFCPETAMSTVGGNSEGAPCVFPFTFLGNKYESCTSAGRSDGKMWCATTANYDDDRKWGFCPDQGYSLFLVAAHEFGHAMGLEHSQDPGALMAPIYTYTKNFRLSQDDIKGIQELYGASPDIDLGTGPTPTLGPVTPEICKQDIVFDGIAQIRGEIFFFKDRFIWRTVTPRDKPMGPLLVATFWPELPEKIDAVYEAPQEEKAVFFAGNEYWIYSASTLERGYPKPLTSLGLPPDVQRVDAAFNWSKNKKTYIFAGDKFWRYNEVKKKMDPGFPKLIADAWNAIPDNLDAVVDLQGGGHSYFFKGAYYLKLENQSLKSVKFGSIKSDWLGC

Experiments:
Collagenase 3 = Collagenase 3 (Bos taurus, UniProt O77656); experiment: Inhibitory concentration against MMP-13 of bovine articular cartilage explants
[1] = molecular target: 72 kDa type IV collagenase (Homo sapiens, UniProt P08253); experiment: Inhibitory concentration against MMP-2
Outline: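 Continuous fluorescence assay of commercially sourced enzyme cleaving a synthetic peptide whose fluorophore (7-methoxycoumarin or 2-aminobenzoyl) is quenched by 2,4-dinitrophenyl. Signal is read at the fluorophore's excitation/emission wavelengths. MMP-2 was preactivated with APMA. MMP-3 used substrate Mca-PKPLAL-Dpa-AR-NH2. Substrate level relative to Km was set so that IC50 stays within 2-fold of Ki (Cheng-Prusoff).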

SMILES | IC50 (Collagenase 3) | IC50 [1]
CC(C)[C@H](NS(=O)(=O)c1ccc(-c2ccc(NC(=O)c3cc4ccccc4o3)cc2)cc1)C(=O)O | 1.3 nM | –
COc1cccc(C(=O)Nc2ccc(-c3ccc(S(=O)(=O)N[C@H](C(=O)O)C(C)C)cc3)cc2)c1 | 13.7 nM | 14 nM
